Values of other authors in patent publication US20110183366A1, “Methods for achieving a protective ACE2 expression level to treat kidney disease and hypertension” (priority 2004, published 2011).

Molecular target: angiotensin II type 1 receptor (Homo sapiens, UniProt P30556)
Settings: selectivity AT1 over AT2, 'reportedly'; cited from earlier work

CCCCC(=O)N(Cc1ccc(-c2ccccc2-c2nnn[nH]2)cc1)[C@H](C(=O)O)C(C)C [Valsartan, valsartan]
affinity for the type 1 receptor relative to the type 2 receptor: about 20,000 times

CCCc1nc2c(C)cc(-c3nc4ccccc4n3C)cc2n1Cc1ccc(-c2ccccc2C(=O)O)cc1 [telmisartan]
affinity for the type 1 receptor relative to the type 2 receptor: about 3,000 times
